Data from doi:10.1101/2020.07.01.182642v1 (biorxiv, 2020).

Amino acid sequences for entries named in this document (tags omitted). A change or cut given only in a name is not applied to a line headed by its entry. Residues count along the entry.
UniProt P49761, 134-484: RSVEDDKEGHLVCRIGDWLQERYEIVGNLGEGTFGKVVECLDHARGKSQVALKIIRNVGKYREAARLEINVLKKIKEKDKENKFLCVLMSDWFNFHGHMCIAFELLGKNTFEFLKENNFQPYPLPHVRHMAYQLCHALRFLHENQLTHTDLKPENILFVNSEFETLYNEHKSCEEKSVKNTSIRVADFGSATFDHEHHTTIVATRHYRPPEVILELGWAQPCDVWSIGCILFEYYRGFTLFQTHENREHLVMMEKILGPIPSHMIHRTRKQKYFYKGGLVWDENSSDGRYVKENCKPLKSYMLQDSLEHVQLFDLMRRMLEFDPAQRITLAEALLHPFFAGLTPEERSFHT
UniProt P49761, 134-484 A319V: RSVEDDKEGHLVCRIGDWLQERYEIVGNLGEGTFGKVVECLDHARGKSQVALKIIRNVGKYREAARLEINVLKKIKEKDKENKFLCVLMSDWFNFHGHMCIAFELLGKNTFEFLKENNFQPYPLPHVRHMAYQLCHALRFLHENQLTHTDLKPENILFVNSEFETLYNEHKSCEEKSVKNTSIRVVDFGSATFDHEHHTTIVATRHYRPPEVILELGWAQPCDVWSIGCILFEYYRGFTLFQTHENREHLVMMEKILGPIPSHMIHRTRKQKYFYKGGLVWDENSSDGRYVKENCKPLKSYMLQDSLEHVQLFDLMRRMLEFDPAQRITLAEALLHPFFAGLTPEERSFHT
UniProt P49674: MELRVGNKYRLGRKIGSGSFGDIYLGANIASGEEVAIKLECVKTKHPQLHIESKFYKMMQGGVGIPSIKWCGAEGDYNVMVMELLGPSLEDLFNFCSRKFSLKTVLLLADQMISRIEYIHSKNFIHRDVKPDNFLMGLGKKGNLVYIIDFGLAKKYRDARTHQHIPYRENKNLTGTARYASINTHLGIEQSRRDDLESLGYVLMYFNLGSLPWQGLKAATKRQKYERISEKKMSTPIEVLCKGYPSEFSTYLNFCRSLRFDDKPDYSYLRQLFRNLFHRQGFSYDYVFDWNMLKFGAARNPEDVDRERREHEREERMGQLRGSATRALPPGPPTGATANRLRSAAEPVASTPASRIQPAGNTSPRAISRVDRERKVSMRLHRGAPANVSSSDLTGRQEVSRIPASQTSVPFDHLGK
UniProt P11309, whole entry: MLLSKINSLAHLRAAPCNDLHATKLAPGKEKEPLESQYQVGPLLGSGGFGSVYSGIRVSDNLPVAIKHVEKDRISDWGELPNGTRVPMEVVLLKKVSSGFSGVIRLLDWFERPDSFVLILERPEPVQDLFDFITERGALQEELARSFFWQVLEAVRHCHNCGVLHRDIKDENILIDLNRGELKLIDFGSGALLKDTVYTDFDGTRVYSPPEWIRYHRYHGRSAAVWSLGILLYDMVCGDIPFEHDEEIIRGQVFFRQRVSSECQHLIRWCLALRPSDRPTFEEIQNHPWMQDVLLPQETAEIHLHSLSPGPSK
UniProt Q9HAZ1: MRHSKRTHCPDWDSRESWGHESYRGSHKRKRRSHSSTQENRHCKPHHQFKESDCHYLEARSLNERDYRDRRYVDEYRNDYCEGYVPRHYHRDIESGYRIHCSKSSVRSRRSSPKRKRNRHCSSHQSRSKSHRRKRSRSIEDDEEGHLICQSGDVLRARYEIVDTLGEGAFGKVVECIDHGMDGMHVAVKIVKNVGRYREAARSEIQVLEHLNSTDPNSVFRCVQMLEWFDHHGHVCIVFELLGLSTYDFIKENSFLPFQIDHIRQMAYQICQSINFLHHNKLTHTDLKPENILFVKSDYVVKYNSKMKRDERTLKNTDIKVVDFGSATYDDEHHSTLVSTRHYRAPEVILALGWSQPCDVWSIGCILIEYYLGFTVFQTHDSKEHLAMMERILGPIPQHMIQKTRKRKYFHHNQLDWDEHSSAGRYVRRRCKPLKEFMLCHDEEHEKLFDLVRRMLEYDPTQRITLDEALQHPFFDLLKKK

What was measured:
[1] = target: T1, CLK3 (R134-T484) (Homo sapiens, UniProt P49761); assay: ITC; format: binding
[2] = target: CSNK1E (Homo sapiens, UniProt P49674); details: binder
[3] = target: PIM1 (Homo sapiens, UniProt P11309); details: binder
[4] = target: CLK4 (Homo sapiens, UniProt Q9HAZ1); details: binder
[5] = target: DYRK1A (Homo sapiens, UniProt Q13627); details: binder
[6] = target: T2, CLK3 (R134-T484) (Homo sapiens, UniProt P49761, A319V); details: binder
[7] = target: CLK3 (Homo sapiens, UniProt P49761); details: binder
[8] = target: T1, CLK3 (R134-T484); details: binder
[9] = target: T1, CLK3 (R134-T484); assay: Omnia kinase assay; format: biochemical
[10] = target: T2, CLK3 (R134-T484); assay: Omnia kinase assay; format: biochemical

Kd [1]: 7.78 ± 0.9 µM
ΔTm inhibitor 2 [2]: 5.1 °C
ΔTm inhibitor 2 [3]: 5.9 °C
ΔTm inhibitor 2 [4]: 9.8 °C
ΔTm inhibitor 2 [5]: 6.1 °C
ΔTm A319V CLK3 [6]: 5.8 °C
ΔTm (°C) 2 [7]: 2.2 degC
ΔTm wild type CLK3 [8]: 1.1 °C
Ki [9]: 5.2 ± 2 µM
Ki [10]: 0.32 ± 0.05 µM
SMILES: CCN1/C(=C/C(C)=O)Sc2ccc(OC)cc21 [compound 2, TG003]
